# Results reported in patent publication US20240245770A1, “COMPOSITIONS AND METHODS FOR TREATING NEUROMUSCULAR DISORDERS” (The Regents of the University of California, priority 2019, published 2024).
# Tested on: Sorted CD8+ T cells
# Assay: CD8+ T cell Luminex
# Type: cell-based, human
# Procedure: (§1) Increased overall cytokine/chemokine/growth factor/ligands in CD8+ T cells of patient untreated or activated with IL-2 or anti-CD3/28 or IL-2+sAJ2 when compared to healthy twin (Tables 59-62). CD8+ T cell Luminex. Sorted CD8+ T cells were left untreated, treated with IL-2 (1000 U/mL) or treated with the combination of IL-2+anti-CD3/28 antibodies (25 μl/mL) or IL-2+sAJ2 (Cells:sAJ2 1:20). After an overnight treatment at 37° C., the supernatants were harvested and the levels of cytokine/chemokine/growth factor/ligands secretion were measured using multiplex luminex assay (Millipore, MA) (Tables 59-62).
# as §1, with “81-84).” for “59-62).”, “assay.” for “assay (Millipore, MA) (Tables 59-62).”
# as §1, with “patients” for “patient”, “90-94).” for “59-62).”, “assay.” for “assay (Millipore, MA) (Tables 59-62).”
# CD8+ T cell Luminex. Sorted CD8+ T cells were treated with the combination of IL-2+anti-CD3/28 antibodies (25 μl/mL). After an overnight treatment at 37° C., the supernatants were harvested and the levels of cytokine/chemokine/growth factor/ligands secretion were measured using multiplex luminex assay (Table 157).
# [1] = CD8+ T cells of H103 JC (ALS patient)
# [2] = CD8+ T cells of H103 JC (ALS patient), Table 94
# [3] = CD8+ T cells of H104 TC (healthy twin)
# [4] = CD8+ T cells of H104 TC (healthy twin), Table 94
# [5] = CD8+ T cells of H105 RS (ALS patient)
# [6] = CD8+ T cells of H105 RS (ALS patient), Table 94
# [7] = H85 TC CD8, overnight treatment, supernatant
substance,measurement,setting,value
Recombinant human IL-2,EGF,[1],78 pg/mL
same,Eotaxin,[1],31 pg/mL
same,FGF2,[1],52 pg/mL
same,FIT3L,[1],50 pg/mL
same,Fractalkine,[1],228 pg/mL
same,GCSF,[1],292 pg/mL
same,GMCSF,[1],26 pg/mL
same,GRO,[1],3406 pg/mL
same,IFNa2,[1],66 pg/mL
same,IFNg,[1],31 pg/mL
same,IL-1Ra,[1],1022 pg/mL
same,IL-1a,[1],16 pg/mL
same,IL-1b,[1],41 pg/mL
same,IL-3,[1],3 pg/mL
same,IL-4,[1],209 pg/mL
same,IL-5,[1],6 pg/mL
same,IL-6,[1],82 pg/mL
same,IL-7,[1],32 pg/mL
same,IL-8,[1],6674 pg/mL
same,IL-9,[1],1149 pg/mL
same,IL-10,[1],51 pg/mL
same,IL-12p40,[1],47 pg/mL
same,IL-12p70,[1],12 pg/mL
same,IL-13,[1],23 pg/mL
same,IL-15,[1],21 pg/mL
same,IL-17a,[1],11 pg/mL
same,IP-10,[1],81 pg/mL
same,MCP1,[1],9873 pg/mL
same,MCP3,[1],112 pg/mL
same,MDC,[1],910 pg/mL
same,MIP1a,[1],212 pg/mL
same,MIP1b,[1],455 pg/mL
same,PDGF-AB/BB,[1],54 pg/mL
same,PDGFaa,[1],86 pg/mL
same,Rantes,[1],2377 pg/mL
same,TGFa,[1],6 pg/mL
same,TNFa,[1],37 pg/mL
same,TNFb,[1],15 pg/mL
same,VEGF,[1],1370 pg/mL
same,sCD40L,[1],37 pg/mL
same,PDGF-AB/BB,[2],54 pg/mL
same,PDGFaa,[2],86 pg/mL
same,sCD40L,[2],37 pg/mL
same,EGF,[3],63 pg/mL
same,Eotaxin,[3],27 pg/mL
same,FGF2,[3],48 pg/mL
same,FIT3L,[3],43 pg/mL
same,Fractalkine,[3],157 pg/mL
same,GCSF,[3],181 pg/mL
same,GMCSF,[3],21 pg/mL
same,GRO,[3],288 pg/mL
same,IFNa2,[3],43 pg/mL
same,IFNg,[3],22 pg/mL
same,IL-1Ra,[3],723 pg/mL
same,IL-1a,[3],13 pg/mL
same,IL-1b,[3],18 pg/mL
same,IL-3,[3],3 pg/mL
same,IL-4,[3],113 pg/mL
same,IL-5,[3],4 pg/mL
same,IL-6,[3],15 pg/mL
same,IL-7,[3],29 pg/mL
same,IL-8,[3],1084 pg/mL
same,IL-9,[3],1084 pg/mL
same,IL-10,[3],21 pg/mL
same,IL-12p40,[3],47 pg/mL
same,IL-12p70,[3],10 pg/mL
same,IL-13,[3],20 pg/mL
same,IL-15,[3],21 pg/mL
same,IL-17a,[3],10 pg/mL
same,IP-10,[3],163 pg/mL
same,MCP1,[3],1835 pg/mL
same,MCP3,[3],26 pg/mL
same,MDC,[3],325 pg/mL
same,MIP1a,[3],135 pg/mL
same,MIP1b,[3],234 pg/mL
same,PDGF-AB/BB,[3],52 pg/mL
same,PDGFaa,[3],58 pg/mL
same,Rantes,[3],1889 pg/mL
same,TGFa,[3],4 pg/mL
same,TNFa,[3],29 pg/mL
same,TNFb,[3],12 pg/mL
same,VEGF,[3],1022 pg/mL
same,sCD40L,[3],26 pg/mL
same,PDGF-AB/BB,[4],52 pg/mL
same,PDGFaa,[4],58 pg/mL
same,sCD40L,[4],26 pg/mL
same,EGF,[5],97 pg/mL
same,Eotaxin,[5],31 pg/mL
same,FGF2,[5],52 pg/mL
same,FIT3L,[5],51 pg/mL
same,Fractalkine,[5],228 pg/mL
same,GCSF,[5],248 pg/mL
same,GMCSF,[5],61 pg/mL
same,GRO,[5],611 pg/mL
same,IFNa2,[5],65 pg/mL
same,IFNg,[5],334 pg/mL
same,IL-1Ra,[5],965 pg/mL
same,IL-1a,[5],16 pg/mL
same,IL-1b,[5],62 pg/mL
same,IL-3,[5],3 pg/mL
same,IL-4,[5],124 pg/mL
same,IL-5,[5],6 pg/mL
same,IL-6,[5],61 pg/mL
same,IL-7,[5],30 pg/mL
same,IL-8,[5],3406 pg/mL
same,IL-9,[5],1149 pg/mL
same,IL-10,[5],23 pg/mL
same,IL-12p40,[5],50 pg/mL
same,IL-12p70,[5],15 pg/mL
same,IL-13,[5],26 pg/mL
same,IL-15,[5],21 pg/mL
same,IL-17a,[5],11 pg/mL
same,IP-10,[5],192 pg/mL
same,MCP1,[5],2893 pg/mL
same,MCP3,[5],28 pg/mL
same,MDC,[5],197 pg/mL
same,MIP1a,[5],317 pg/mL
same,MIP1b,[5],744 pg/mL
same,PDGF-AB/BB,[5],197 pg/mL
same,PDGFaa,[5],152 pg/mL
same,Rantes,[5],7801 pg/mL
same,TGFa,[5],5 pg/mL
same,TNFa,[5],80 pg/mL
same,TNFb,[5],17 pg/mL
same,VEGF,[5],1166 pg/mL
same,sCD40L,[5],92 pg/mL
same,PDGF-AB/BB,[6],197 pg/mL
same,PDGFaa,[6],152 pg/mL
same,sCD40L,[6],92 pg/mL
same,IL-7,CD8 of H84 JC (patient),3.96 pg/mL
same,IL-8,CD8 of H84 JC (patient),547.29 pg/mL
same,IL-9,CD8 of H84 JC (patient),7.82 pg/mL
same,IL-10,CD8 of H84 JC (patient),6.26 pg/mL
same,IL-12p40,CD8 of H84 JC (patient),3.47 pg/mL
same,IL-12p70,CD8 of H84 JC (patient),2.61 pg/mL
same,IL-13,CD8 of H84 JC (patient),4.1 pg/mL
same,IL-15,CD8 of H84 JC (patient),2.12 pg/mL
same,IL-17a,CD8 of H84 JC (patient),2.19 pg/mL
same,IP-10,CD8 of H84 JC (patient),15.53 pg/mL
same,L-2,CD8 of H84 JC (patient),5804 pg/mL
same,MCP1,CD8 of H84 JC (patient),562.72 pg/mL
same,MCP3,CD8 of H84 JC (patient),4.6 pg/mL
same,MDC,CD8 of H84 JC (patient),223.2 pg/mL
same,MIP1a,CD8 of H84 JC (patient),79 pg/mL
same,MIP1b,CD8 of H84 JC (patient),144.7 pg/mL
same,PDGF-AB/B,CD8 of H84 JC (patient),11.69 pg/mL
same,PDGFaa,CD8 of H84 JC (patient),50.2 pg/mL
same,Rantes,CD8 of H84 JC (patient),377.89 pg/mL
same,TGFa,CD8 of H84 JC (patient),1.14 pg/mL
same,TNFa,CD8 of H84 JC (patient),8.45 pg/mL
same,TNFb,CD8 of H84 JC (patient),3.96 pg/mL
same,VEGF,CD8 of H84 JC (patient),109.58 pg/mL
same,sCD40L,CD8 of H84 JC (patient),7.43 pg/mL
same,EGF,CD8 of H85 TC (healthy twin),12.37 pg/mL
same,Eotaxin,CD8 of H85 TC (healthy twin),4.79 pg/mL
same,FGF2,CD8 of H85 TC (healthy twin),4.1 pg/mL
same,FIT3L,CD8 of H85 TC (healthy twin),3.82 pg/mL
same,Fractalkine,CD8 of H85 TC (healthy twin),31.3 pg/mL
same,GCSF,CD8 of H85 TC (healthy twin),6.9 pg/mL
same,GMCSF,CD8 of H85 TC (healthy twin),5.22 pg/mL
same,GRO,CD8 of H85 TC (healthy twin),112.6 pg/mL
same,IFNa2,CD8 of H85 TC (healthy twin),7.62 pg/mL
same,IFNg,CD8 of H85 TC (healthy twin),4.6 pg/mL
same,IL-1Ra,CD8 of H85 TC (healthy twin),52.33 pg/mL
same,IL-1a,CD8 of H85 TC (healthy twin),2.22 pg/mL
same,IL-1b,CD8 of H85 TC (healthy twin),2.13 pg/mL
same,IL-3,CD8 of H85 TC (healthy twin),0.85 pg/mL
same,IL-4,CD8 of H85 TC (healthy twin),13.08 pg/mL
same,IL-5,CD8 of H85 TC (healthy twin),1.55 pg/mL
same,IL-6,CD8 of H85 TC (healthy twin),2.98 pg/mL
same,IL-7,CD8 of H85 TC (healthy twin),3.47 pg/mL
same,IL-8,CD8 of H85 TC (healthy twin),282.21 pg/mL
same,IL-9,CD8 of H85 TC (healthy twin),8.03 pg/mL
same,IL-10,CD8 of H85 TC (healthy twin),4.26 pg/mL
same,IL-12p40,CD8 of H85 TC (healthy twin),3.82 pg/mL
same,IL-12p70,CD8 of H85 TC (healthy twin),2.38 pg/mL
same,IL-13,CD8 of H85 TC (healthy twin),5.22 pg/mL
same,IL-15,CD8 of H85 TC (healthy twin),1.62 pg/mL
same,IL-17a,CD8 of H85 TC (healthy twin),2.19 pg/mL
same,IP-10,CD8 of H85 TC (healthy twin),2.53 pg/mL
same,L-2,CD8 of H85 TC (healthy twin),4954 pg/mL
same,MCP1,CD8 of H85 TC (healthy twin),308.14 pg/mL
same,MCP3,CD8 of H85 TC (healthy twin),3.89 pg/mL
same,MDC,CD8 of H85 TC (healthy twin),98.41 pg/mL
same,MIP1a,CD8 of H85 TC (healthy twin),61.65 pg/mL
same,MIP1b,CD8 of H85 TC (healthy twin),93.34 pg/mL
same,PDGF-AB/B,CD8 of H85 TC (healthy twin),19.59 pg/mL
same,PDGFaa,CD8 of H85 TC (healthy twin),42.99 pg/mL
same,Rantes,CD8 of H85 TC (healthy twin),554.96 pg/mL
same,TGFa,CD8 of H85 TC (healthy twin),0.94 pg/mL
same,TNFa,CD8 of H85 TC (healthy twin),8.03 pg/mL
same,TNFb,CD8 of H85 TC (healthy twin),2.57 pg/mL
same,VEGF,CD8 of H85 TC (healthy twin),98.41 pg/mL
same,sCD40L,CD8 of H85 TC (healthy twin),3.2 pg/mL
same,EGF,[7],12.37 pg/mL
same,Eotaxi,[7],4.79 pg/mL
same,FGF2,[7],4.1 pg/mL
same,FIT3L,[7],3.82 pg/mL
same,Fractalkin,[7],31.3 pg/mL
same,GCSF,[7],6.9 pg/mL
same,GMCSF,[7],5.22 pg/mL
same,GRO,[7],112.6 pg/mL
same,IFNa2,[7],7.62 pg/mL
same,IFNg,[7],4.6 pg/mL
same,IL-1Ra,[7],52.33 pg/mL
same,IL-1a,[7],2.22 pg/mL
same,IL-1b,[7],2.13 pg/mL
same,IL-3,[7],0.85 pg/mL
same,IL-4,[7],13.08 pg/mL
same,IL-5,[7],1.55 pg/mL
same,IL-9,[7],8.03 pg/mL
same,IL-10,[7],4.26 pg/mL
same,IL-12p40,[7],3.82 pg/mL
same,IL-12p70,[7],2.38 pg/mL
same,IL-13,[7],5.22 pg/mL
same,IL-15,[7],1.62 pg/mL
same,IL-17a,[7],2.19 pg/mL
same,L-2,[7],4954 pg/mL
same,L-6,[7],2.98 pg/mL
same,L-7,[7],3.47 pg/mL
same,L-8,[7],282.21 pg/mL
same,MCP1,[7],308.14 pg/mL
same,MCP3,[7],3.89 pg/mL
same,MDC,[7],98.41 pg/mL
same,MIP1a,[7],61.65 pg/mL
same,MIP1b,[7],93.34 pg/mL
same,P-10,[7],2.53 pg/mL
same,PDGF-AB/BB,[7],19.59 pg/mL
same,PDGFaa,[7],42.99 pg/mL
same,Rantes,[7],554.96 pg/mL
same,TGFa,[7],0.94 pg/mL
same,TNFa,[7],8.03 pg/mL
same,TNFb,[7],2.57 pg/mL
same,VEGF,[7],98.41 pg/mL
same,sCD40L,[7],3.2 pg/mL
